Measured values as given in ChEMBL document CHEMBL5113516, “2-(Fluoromethoxy)-4'-(S-methanesulfonimidoyl)-1,1'-biphenyl (UCM-1306), an Orally Bioavailable Positive Allosteric Modulator of the Human Dopamine D1 Receptor for Parkinson's Disease” (J Med Chem, 2022).

The chains behind the UniProt entries cited, without tags or fusion partners.
UniProt P21728, whole entry: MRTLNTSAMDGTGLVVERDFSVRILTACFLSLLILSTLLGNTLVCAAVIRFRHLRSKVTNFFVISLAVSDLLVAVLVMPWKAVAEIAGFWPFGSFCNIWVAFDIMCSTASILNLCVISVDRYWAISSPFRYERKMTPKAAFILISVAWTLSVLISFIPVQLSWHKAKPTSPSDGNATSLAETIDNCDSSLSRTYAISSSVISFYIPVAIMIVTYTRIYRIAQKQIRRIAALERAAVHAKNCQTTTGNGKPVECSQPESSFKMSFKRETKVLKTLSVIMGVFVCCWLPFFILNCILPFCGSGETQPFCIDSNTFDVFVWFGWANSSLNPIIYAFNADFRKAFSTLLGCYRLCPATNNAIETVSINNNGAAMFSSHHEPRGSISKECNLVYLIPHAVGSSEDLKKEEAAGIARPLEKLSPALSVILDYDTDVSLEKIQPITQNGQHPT

Target: D(1A) dopamine receptor (Homo sapiens) (UniProt P21728)
Test: Positive allosteric modulation of D1R (unknown origin) expressed in mouse CAD cells assessed as potentiation of DA-induced cAMP production relative to control
Assay type: functional, cell-based
Settings: filed as positive allosteric modulator, dose 0.1-10 µM

SMILES: O=Cc1ccc(-c2ccccc2OCF)cc1
- Activity: Dde
